Reference: patent US10072011B2, “Substituted bridged urea analogs as sirtuin modulators” (GlaxoSmithKline Intellectual Property (No.2) Limited, priority 2014, dated 2018)

Target: T1, SIRT1 (Homo sapiens, UniProt Q96EB6)
T1 sequence (Q96EB6 1-747): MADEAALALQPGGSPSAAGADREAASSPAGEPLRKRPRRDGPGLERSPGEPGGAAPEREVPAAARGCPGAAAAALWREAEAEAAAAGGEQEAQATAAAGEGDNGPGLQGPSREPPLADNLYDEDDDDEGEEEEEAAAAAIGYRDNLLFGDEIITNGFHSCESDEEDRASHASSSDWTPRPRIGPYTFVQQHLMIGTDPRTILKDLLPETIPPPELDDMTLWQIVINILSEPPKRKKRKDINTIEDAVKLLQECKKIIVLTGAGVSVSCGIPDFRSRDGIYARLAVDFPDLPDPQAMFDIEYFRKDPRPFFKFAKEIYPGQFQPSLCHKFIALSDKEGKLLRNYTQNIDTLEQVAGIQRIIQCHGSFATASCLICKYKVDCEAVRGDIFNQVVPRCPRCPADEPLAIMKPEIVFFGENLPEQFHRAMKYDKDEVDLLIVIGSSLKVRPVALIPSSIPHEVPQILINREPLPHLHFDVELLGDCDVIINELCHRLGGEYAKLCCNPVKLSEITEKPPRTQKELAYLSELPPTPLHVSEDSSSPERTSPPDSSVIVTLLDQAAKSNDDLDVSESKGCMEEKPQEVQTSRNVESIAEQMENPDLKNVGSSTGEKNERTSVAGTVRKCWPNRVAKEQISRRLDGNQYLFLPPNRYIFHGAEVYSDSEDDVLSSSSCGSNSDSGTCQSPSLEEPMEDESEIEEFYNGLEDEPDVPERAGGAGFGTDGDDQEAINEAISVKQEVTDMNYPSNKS
Assay: Trp mass spectrometry assay of SIRT1 activation (Ac-R-H-K-K(Ac)-W-NH2 peptide)
Assay type: biochemical
Conditions: for Emax: 25 min, read-out: TRP MAX RESP (percent maximum fold activation); for TRP Activity (EC1.5, concentration of test compound that results in 150% activation of SIRT1): Trp peptide 0.5 μM, 120 μM βNAD+, 10 nM SIRT1, 25 min at 25° C.
Protocol: The Trp mass spectrometry assay was conducted as follows. […] The SIRT1 protein was obtained by cloning the SirT1 gene into a T7-promoter containing vector, which was then expressed in BL21(DE3) bacterial cells and purified as described in further detail below. Test compound was added at varying concentrations to this reaction mixture and the resulting reactions were monitored. After the 25 minute incubation with SIRT1, 10 μL of 10% formic acid was added to stop the reaction. The resulting reactions were sealed and frozen for later mass spec analysis. The relative SIRT1 activity was then determined by measuring the amount of O-acetyl-ADP-ribose (OAADPR) formed (or, alternatively, the amount of deacetylated Trp peptide generated) by the NAD-dependent sirtuin deacetylation reaction in the presence of varying concentrations of the test compound versus control reactions lacking the test compound. The degree to which the test agent activated deacetylation by SIRT1 was expressed as EC1.5 (i.e., the concentration of compound required to increase SIRT1 activity by 50% over the control lacking test compound), and Percent Maximum Activation (i.e., the maximum activity relative to control (100%) obtained for the test compound).
This time point was the same as that used for test compounds and, within the linear range, the endpoint represents a change in velocity.
For the above assay, SIRT1 protein was expressed and purified as follows. The SirT1 gene was cloned into a T7-promoter containing vector and transformed into BL21(DE3). The protein was expressed by induction with 1 mM IPTG as an N-terminal His-tag fusion protein at 18° C. overnight and harvested at 30,000×g. Cells were lysed with lysozyme in lysis buffer (50 mM Tris-HCl, 2 mM Tris[2-carboxyethyl]phosphine (TCEP), 10 μM ZnCl2, 200 mM NaCl) and further treated with sonication for 10 min for complete lysis. The protein was purified over a Ni-NTA column (Amersham) and fractions containing pure protein were pooled, concentrated and run over a sizing column (Sephadex S200 26/60 global). The peak containing soluble protein was collected and run on an Ion-exchange column (MonoQ). Gradient elution (200 mM-500 mM NaCl) yielded pure protein. This protein was concentrated and dialyzed against dialysis buffer (20 mM Tris-HCl, 2 mM TCEP) overnight. The protein was aliquoted and frozen at −80° C. until further use.
“NT” means not tested; “ND” means not determinable.

`CN(C)C(=O)c1ccc2c(n1)N(C(=O)Nc1ccccn1)[C@H]1CCN2C1` [Example 258, (4S)—N7,N7-dimethyl-N5-(pyridin-2-yl)-3,4-dihydro-1,4-methanopyrido[2,3-b][1,4]diazepine-5,7(2H)-dicarboxamide] was tested, and the Emax was under 150% and the “TRP Activity (EC1.5, concentration of test compound that results in 150% activation of SIRT1)” value was “C (EC1.5>25 μM)”.
In the case of `C[C@@H](NC(=O)c1ccc2c(n1)N(C(=O)Nc1cc(C(=O)N(C)C)ccn1)[C@H]1CCN2C1)C(F)(F)F` [Example 150, (4S)—N5-(4-(dimethylcarbamoyl)pyridin-2-yl)-N7-((R)-1,1,1-trifluoropropan-2-yl)-3,4-dihydro-1,4-methanopyrido[2,3-b][1,4]diazepine-5,7(2H)-dicarboxamide], the Emax was over 150% and the “TRP Activity (EC1.5, concentration of test compound that results in 150% activation of SIRT1)” value was “B (EC1.5 1-25 μM)”.
